One molecule from PMC8065111, “Inhibition of polar actin assembly by astral microtubules is required for cytokinesis” (Nature Communications, 2021) can be followed below.

The chains behind the UniProt entries cited, without tags or fusion partners. Residues count along the entry.
UniProt O60610, 580-1272: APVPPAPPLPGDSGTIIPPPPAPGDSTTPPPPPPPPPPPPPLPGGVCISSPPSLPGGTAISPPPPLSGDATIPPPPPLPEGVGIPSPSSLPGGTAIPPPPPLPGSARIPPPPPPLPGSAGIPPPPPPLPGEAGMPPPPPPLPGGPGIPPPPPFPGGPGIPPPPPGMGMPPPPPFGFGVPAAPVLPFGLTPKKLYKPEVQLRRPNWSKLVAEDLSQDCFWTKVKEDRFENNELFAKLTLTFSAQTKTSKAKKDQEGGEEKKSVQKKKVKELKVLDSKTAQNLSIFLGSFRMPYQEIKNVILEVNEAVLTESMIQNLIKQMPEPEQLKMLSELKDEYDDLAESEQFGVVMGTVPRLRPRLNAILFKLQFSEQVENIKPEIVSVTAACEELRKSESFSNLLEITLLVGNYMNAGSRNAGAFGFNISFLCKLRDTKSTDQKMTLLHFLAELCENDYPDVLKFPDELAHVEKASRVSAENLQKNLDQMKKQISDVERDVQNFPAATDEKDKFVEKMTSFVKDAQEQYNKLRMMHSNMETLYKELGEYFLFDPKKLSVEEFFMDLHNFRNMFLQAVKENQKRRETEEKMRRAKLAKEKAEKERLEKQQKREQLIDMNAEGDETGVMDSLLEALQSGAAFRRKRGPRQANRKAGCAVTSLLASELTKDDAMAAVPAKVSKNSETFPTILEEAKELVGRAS

The test has as its target T1, MBP-DIAPH1-CT (human, UniProt O60610 580-1272).
T1 construct: human DIAPH1, C-terminal actin nucleating half, residues 580-1272; cloned into pKM596 to give an MBP fusion; also called recombinant C-terminal half of DIAPH1; source: E. coli ER2523, purified (amylose resin)
The experiment in a line: pull-down; 0.05 nmol His6-DIAPH1-NT immobilised on nickel-Sepharose beads, with or without equimolar GST-IQGAP1 or GST-RhoA (2 h), then equimolar MBP-DIAPH1-CT (2 h); 25 mM HEPES pH 7.5, 120 mM NaCl, 1 mM EGTA, 0.3% Triton X-100, 1 mM beta-mercaptoethanol; 4 °C; anti-MBP blot. The conditions noted are these: both partners purified.

B1: His6-DIAPH1-NT (domain or fragment, human, UniProt O60610 1-575, looked up)
chain: MEPPGGSLGPGRGTRDKKKGRSPDELPSAGGDGGKSKKFTLKRLMADELERFTSMRIKKEKEKPNSAHRNSSASYGDDPTAQSLQDVSDEQVLVLFEQMLLDMNLNEEKQQPLREKDIIIKREMVSQYLYTSKAGMSQKESSKSAMMYIQELRSGLRDMPLLSCLESLRVSLNNNPVSWVQTFGAEGLASLLDILKRLHDEKEETAGSYDSRNKHEIIRCLKAFMNNKFGIKTMLETEEGILLLVRAMDPAVPNMMIDAAKLLSALCILPQPEDMNERVLEAMTERAEMDEVERFQPLLDGLKSGTTIALKVGCLQLINALITPAEELDFRVHIRSELMRLGLHQVLQDLREIENEDMRVQLNVFDEQGEEDSYDLKGRLDDIRMEMDDFNEVFQILLNTVKDSKAEPHFLSILQHLLLVRNDYEARPQYYKLIEECISQIVLHKNGADPDFKCRHLQIEIEGLIDQMIDKTKVEKSEAKAAELEKKLDSELTARHELQVEMKKMESDFEQKLQDLQGEKDALHSEKQQIATEKQDLEAEVSQLTGEVAKLTKELEDAKKEMASLSAAAITVPPS
notes: human DIAPH1, N-terminal fragment, residues 1-575 of the 1272-residue protein; plasmid pET30a-DIAPH1-NT(1-575aa); Plasmid was a gift from J. Copeland; also called N-terminal fragment of DIAPH1; DIAPH1 N-terminal regulatory domains; source: E. coli BL21, purified (nickel-Sepharose)
B1: the binding result is “binds”.
